In series [1] the target is Peroxisome proliferator-activated receptor gamma (Homo sapiens) (UniProt P37231). Kind of series: Binding affinity to GST tagged PPARgamma LBD (unknown origin) at 100 uM preincubated in shaker for 30 sec followed by incubation for additional 4 hrs at room temperature by LanthaScreen TR-FRET competitive binding assay. The note with it: filed as agonist, time 14430.0 sec. On the technique in general: Time-resolved FRET reads energy transfer from a long-lived donor to a nearby acceptor.

The chains behind the UniProt entries cited, without tags or fusion partners. Where a name states a change or a piece, a line headed by the entry shows the natural chain unless it says otherwise.
UniProt P37231: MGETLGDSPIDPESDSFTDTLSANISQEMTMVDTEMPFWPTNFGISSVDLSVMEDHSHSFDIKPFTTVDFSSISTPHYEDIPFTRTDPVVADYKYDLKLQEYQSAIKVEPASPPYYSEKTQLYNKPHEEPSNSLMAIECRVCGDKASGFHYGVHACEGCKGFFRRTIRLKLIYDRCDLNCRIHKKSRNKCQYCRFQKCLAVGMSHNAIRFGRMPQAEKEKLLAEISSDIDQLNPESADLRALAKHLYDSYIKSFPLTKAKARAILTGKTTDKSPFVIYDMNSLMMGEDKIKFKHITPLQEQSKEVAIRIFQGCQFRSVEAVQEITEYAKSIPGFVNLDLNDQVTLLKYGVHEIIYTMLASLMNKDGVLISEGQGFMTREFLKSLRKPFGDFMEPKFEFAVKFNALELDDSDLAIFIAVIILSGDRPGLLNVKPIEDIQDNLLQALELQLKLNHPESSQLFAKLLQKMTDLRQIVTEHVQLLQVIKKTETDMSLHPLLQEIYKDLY

The target is the same in series [2]. In words: Agonist activity at human PPARgamma transfected in COS7 cells at 1 to 10 uM incubated for 24 hrs by luciferase based microplate reader assay. It is filed as cell-based. Conditions: filed as agonist, dose 1-10 µM.
A further series has as its system 3T3-L1. In words: Induction of adipocytes differentiation in insulin/IBMX stimulated mouse 3T3-L1 assessed as lipid accumulation at 10 uM incubated for 2 days followed by insulin addition for another 6 days by Oil Red O staining based microscopic assay (reference value: 15.09%). The note with it: time 8 day. It is filed as functional.
A short description of series [3]: Toxicity in db/db mouse assessed as body weight gain at 10 to 40 mg/kg, ip administered for 21 days. It is filed as organism-based. The note with it: in vivo, 504 h, dose 10-40 mg/kg, time 21 day.
The nature of series [4]: Toxicity in db/db mouse assessed as reduction in body weight at 20 to 40 mg/kg, ip administered for 21 days. Conditions: in vivo, 504 h, dose 20-40 mg/kg, time 21 day. It is filed as organism-based.
Series [5] relates to Mus musculus. Kind of series: Anti-NAFL activity in db/db mouse assessed as reduction in vacuole size at 20 mg/kg, ip administered for 21 days by H and E staining based assay. The series is classed as functional, organism-based. Conditions: time 21.0 day.
Series [6] has as its system Mus musculus. Kind of series: Anti-NAFL activity in db/db mouse assessed as reduction in amount of lipid droplets at 20 mg/kg, ip administered for 21 days by Oil Red O staining based assay. It is filed as functional, organism-based. The note with it: time 21.0 day.
Series [7] deals with Mus musculus. In words: Anti-NAFL activity in db/db mouse assessed as reduction in serum TG content at 20 mg/kg, ip administered for 21 days. It is filed as functional, organism-based. Conditions: time 21.0 day.
Series [8] deals with Mus musculus. Kind of series: Anti-NAFL activity in db/db mouse assessed as reduction in serum TC content at 20 mg/kg, ip administered for 21 days. It is filed as functional, organism-based. The note with it: time 21.0 day.
Series [9] relates to Mus musculus. Kind of series: Anti-NAFL activity in db/db mouse assessed as reduction in serum LDLC content at 20 mg/kg, ip administered for 21 days. It is filed as functional, organism-based. The note with it: time 21.0 day.
Series [10] deals with Mus musculus. Kind of series: Anti-NAFL activity in db/db mouse assessed as reduction in hepatic TG content at 20 mg/kg, ip administered for 21 days. It is filed as functional, organism-based. The note with it: time 21.0 day.
Series [11] concerns Mus musculus. In words: Anti-NAFL activity in db/db mouse assessed as reduction in hepatic TC content at 20 mg/kg, ip administered for 21 days. It is filed as functional, organism-based. The note with it: time 21.0 day.
For series [12], the system named is Mus musculus. In words: Anti-NAFL activity in db/db mouse assessed as decrease in liver injury by measuring reduced serum AST level at 20 mg/kg, ip administered for 21 days. It is filed as functional, organism-based. The note with it: time 21.0 day.
Series [13] has as its system Mus musculus. Kind of series: Anti-NAFL activity in db/db mouse assessed as decrease in liver injury by measuring reduced serum ALT level at 20 mg/kg, ip administered for 21 days. The series is classed as functional, organism-based. The note with it: time 21.0 day.

Data on three compounds can be found in ChEMBL document CHEMBL5608219, “Structure-based screening, optimization and biological evaluation of novel chrysin-based derivatives as selective PPARγ modulators for the treatment of T2DM and hepatic steatosis” (Eur J Med Chem, 2024).

Molecules are shown by their SMILES. Calls of active or inactive are those of the source. The rule behind the calls is not given here.

For the compound `O=c1cc(-c2ccccc2)oc2cc(O)cc(O)c12` [CHRYSIN], the outcome in [1] and in series [2] was Active.

`O=C(COc1cc(O)c2c(=O)cc(-c3ccccc3)oc2c1)NCc1ccc(C(F)(F)F)cc1`: the Activity was 12.11% in the series with 3T3-L1, “Non-Toxic” in series [3] and “Toxic” in series [4].

With `Clc1ccc(C(Cn2ccnc2)OCc2ccc(Sc3ccccc3)cc2)c(Cl)c1.O=[N+]([O-])O` (centres undefined) [FENTICONAZOLE NITRATE], the result in the series on Mus musculus [5], in the series on Mus musculus [6], with Mus musculus [7], in the series on Mus musculus [8], in the series on Mus musculus [9] and in the series with Mus musculus [10] was Active. The result in the series with Mus musculus [11], with Mus musculus [12] and with Mus musculus [13] was Active.
